Tests used:
AA-induced MPO = assay: Arachidonic acid-induced inflammation in mouse ear, MPO assay; type: in vivo; settings: AA 4 mg/40 μl acetone, MPO at 5 hours
Procedure: Arachadonic acid (“AA”), another standard agent that is used routinely as a contact irritant in the mouse ear model to assay the effectiveness of both steroidal and nonsteroidal anti-inflammatory agents, is the metabolic precursor for a number of lipoxygenase and cyclooxygenase products. Its mechanism of action and, thus, the signaling pathways it activates, differ from those activated by topically applied TPA. AA produces a more rapid edema than TPA that peaks at 1 hour after application. There is minimal histologically observable neutrophil infiltration in response to AA, but an increase in MPO can be detected. Experience has shown that effectiveness against cyclooxygenase activated inflammation in this model is less predictive of effectiveness against human inflammatory diseases than effectiveness against TPA activated inflammation. The effect of the inventive compositions on arachidonic acid (AA) induced inflammation was assayed using the same protocols as above, but with the following modifications. AA was applied to both ears at 4 mg/40 μl acetone. The ears were harvested at 1 hour to measure edema, the maximum response time, and at 5 hours for inflammatory neutrophil infiltration as measured by an MPO assay.

TPA-induced MPO activity [1] = assay: TPA-induced neutrophil infiltration, MPO assay of mouse ears; settings: AFC without TPA
TPA-induced MPO activity [2] = assay: Systemic effect: TPA-induced MPO activity in the contralateral vehicle-treated ear; settings: topical, increasing concentration, TPA on both ears

inflammation activity of AFC itself in the Neutrophil-Infiltration Assay (TPA-induced MPO activity [1]): no inflammation activity of its own | MPO activity in the contralateral vehicle-treated ear (systemic effect) (TPA-induced MPO activity [2]): no effect
Compound: CC(=O)N[C@@H](CSCC=C(C)CCC=C(C)CCC=C(C)C)C(=O)O (stereo in doubt) [AFC, N-acetyl-5-trans, trans-farnesyl-L-cysteine]
ED50 against AA-induced MPO relative to TPA-induced MPO (AA-induced MPO): 10 fold | activity against AA-induced granulocyte infiltration relative to TPA (AA-induced MPO): 50%

— patent publication US20090155186A1, “Compositions and methods for treating inflammatory conditions” (SIGNUM BIOSCENCES, INC., priority 2005, published 2009)
